## Measured affinities in a library of Ab-14 heavy chain variants

Source: Engelhart et al. 2022 (doi:10.1038/s41597-022-01779-4), MIT Lincoln Laboratory and A-Alpha Bio; data file from the FLAb repository.

All variants were tested on one target, the spike HR2 peptide PDVDLGDISGINAS (SARS-CoV-2).

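In library AAYL49, one, two or three CDR residues were substituted; doubles and triples were drawn at random. AlphaSeq pools MATa yeast showing the antibodies with MATalpha yeast showing the peptide. Binding brings cells together so that they mate, and sequencing counts the barcode pairs among the diploids. The ratio of observed to expected reads was calibrated, replicate by replicate, on BCL2-family standards whose Kd was known from biolayer interferometry. Mating was done three times.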

Parent: Ab-14, a human scFv built as VH, a (GGGGS)3 linker, VL. Only the CDRs of the heavy chain vary.
VH: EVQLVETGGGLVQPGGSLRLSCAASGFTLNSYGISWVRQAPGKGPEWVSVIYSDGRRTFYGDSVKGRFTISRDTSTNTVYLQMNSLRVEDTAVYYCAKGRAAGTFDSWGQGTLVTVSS
VL: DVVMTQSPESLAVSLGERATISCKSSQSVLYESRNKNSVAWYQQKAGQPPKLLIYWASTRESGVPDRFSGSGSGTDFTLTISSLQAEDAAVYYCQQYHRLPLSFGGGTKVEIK

Changes read parent residue, position, new residue, counted from the first residue of the VH shown. The read-out is the apparent dissociation constant on a log10 scale (nM): the lower, the stronger. Averages over replicates are reported, and they cover detected replicates only. "n.d." marks a missing value. The strain was present, yet no cells mated with the target were sequenced in that replicate, which points to weak or no binding.

| changes | log10 Kd, replicates | log10 Kd (nM), mean | control signals |
|---|---|---|---|
| F27L+R56K+V64P | n.d. 5.04 n.d. | 5.04 | 2 of 9 (4.78) |
| S31G+I51D+R56S | n.d. n.d. n.d. | n.d. | 0 of 9 |
| V50P+I51C+R56Q | 4.62 n.d. n.d. | 4.62 | 3 of 9 (4.00) |
| I34W+S53P+A102V | 5.09 n.d. n.d. | 5.09 | 2 of 9 (3.45) |
| L29R+S53G+S63A | n.d. 4.26 n.d. | 4.26 | 3 of 9 (3.64) |
| A101E+S107N | 0.03 0.28 0.13 | 0.15 | 1 of 9 (4.84) |
| Y32A+V50F+T104Y | n.d. n.d. 5.01 | 5.01 | 3 of 9 (4.05) |
| N30L+S31A+T104M | 1.75 1.60 2.09 | 1.81 | 3 of 9 (3.88) |
| S31Y+F59K+G103Q | n.d. n.d. n.d. | n.d. | 0 of 9 |
| N30C+Y32P+V50E | n.d. n.d. n.d. | n.d. | 1 of 9 (3.44) |
| D54W+D62W+A101V | n.d. n.d. n.d. | n.d. | 1 of 9 (3.12) |
| F27N+V50F+K65T | n.d. n.d. n.d. | n.d. | 1 of 9 (3.49) |
| G55F+F59N+F105A | n.d. n.d. n.d. | n.d. | 1 of 9 (4.71) |
| S35A+T104M+D106H | n.d. n.d. n.d. | n.d. | 2 of 9 (4.40) |
| N30C+G55H+G99F | n.d. n.d. n.d. | n.d. | 0 of 9 |
| I34F+V50R+R100N | 3.91 n.d. n.d. | 3.91 | 2 of 9 (3.86) |
| I34S+R57T+G103V | n.d. 2.96 n.d. | 2.96 | 1 of 9 (3.51) |
| D54K+R57M+D62Q | 2.75 n.d. n.d. | 2.75 | 0 of 9 |
| G55W+D62W+A102C | 4.36 n.d. n.d. | 4.36 | 1 of 9 (2.38) |
| S35M+R56F+T104Y | 5.86 n.d. n.d. | 5.86 | 2 of 9 (4.24) |
| R57A+G61P+S107Y | 3.95 n.d. n.d. | 3.95 | 1 of 9 (3.51) |
| F27V+K65M+G99V | 4.21 2.74 n.d. | 3.47 | 0 of 9 |
| G33A+Y60N+G99S | n.d. n.d. n.d. | n.d. | 0 of 9 |
| Y32V+D62R+F105E | n.d. n.d. n.d. | n.d. | 2 of 9 (3.68) |
| Y32N+Y60F+G103K | n.d. 4.02 6.37 | 5.19 | 3 of 9 (3.85) |
| I51L+S63P | n.d. n.d. n.d. | n.d. | 0 of 9 |
| L29Y+T58L+S107E | n.d. n.d. 3.92 | 3.92 | 0 of 9 |
| S35G+V50F+D106V | 2.71 n.d. n.d. | 2.71 | 0 of 9 |
| F27W+D62W | n.d. n.d. n.d. | n.d. | 0 of 9 |
| G33E+S53K | n.d. 3.69 2.55 | 3.12 | 2 of 9 (3.76) |
| Y32P+D62A+A101H | n.d. n.d. n.d. | n.d. | 0 of 9 |
| Y52R+F59W+G103D | n.d. n.d. n.d. | n.d. | 2 of 9 (3.82) |

Again, the first 4 entries without any signal:

changes,"log10 Kd, replicates","log10 Kd (nM), mean",control signals
S31G+I51D+R56S,n.d. n.d. n.d.,n.d.,0 of 9
S31Y+F59K+G103Q,n.d. n.d. n.d.,n.d.,0 of 9
N30C+Y32P+V50E,n.d. n.d. n.d.,n.d.,1 of 9 (3.44)
D54W+D62W+A101V,n.d. n.d. n.d.,n.d.,1 of 9 (3.12)

Nonspecific signal, from three strains lacking the peptide, appeared in 15% of pairings of library AAYL49, centred on 4.06 (5% of these signals below 2.83); values are not corrected for it. For each scFv, signals with the empty controls are counted beside the result, with their mean in brackets. In this assay the parent's reference entry averaged 0.65; its copy inside this library read 4.11 (one replicate of three).